Molecular target: recombinant human IL-6 (human) (UniProt P05231)

Substance	IL-6-dependent proliferation of XG-1 cells (MTT assay) (fold molar excess over IL-6)	IL-6-dependent proliferation of XG-1 cells (fold molar excess over IL-6)
gp130-Cγ1●IL-6Rα-κ (from UniProt P40189) (Fc fusion)	10	
gp130-Fc●CNTFRα-Fc ligand trap (from UniProt P40189) (Fc fusion)		1000

From patent publication US5844099, “Cytokine antagonists” (Regeneron Pharmaceuticals, Inc., dated 1998)
